# According to PubChem BioAssay AID652105 (National Center for Advancing Translational Sciences (NCATS), 2013):
# Protein sequences, listed by entry. Tags and fused reporters are not part of them.
# UniProt P48426, whole entry: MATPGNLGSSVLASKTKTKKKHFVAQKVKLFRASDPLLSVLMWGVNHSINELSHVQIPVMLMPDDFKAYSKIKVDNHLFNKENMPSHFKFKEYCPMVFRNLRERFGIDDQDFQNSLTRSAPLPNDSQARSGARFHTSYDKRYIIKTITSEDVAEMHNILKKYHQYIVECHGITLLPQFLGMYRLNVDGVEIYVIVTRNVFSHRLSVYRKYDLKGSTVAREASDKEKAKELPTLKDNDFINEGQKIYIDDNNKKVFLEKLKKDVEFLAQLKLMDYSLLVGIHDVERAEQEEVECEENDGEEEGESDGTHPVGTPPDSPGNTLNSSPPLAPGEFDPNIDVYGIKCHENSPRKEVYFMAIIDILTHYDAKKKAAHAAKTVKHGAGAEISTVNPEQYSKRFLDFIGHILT
# The list shows a part of the results, in another mix than the full data. The source made the active and inactive calls. The calls were made as follows: active = max response of -50% or lower; inconclusive = between -30% and -50%; inactive = -30% or higher.
# Target: Phosphatidylinositol 5-phosphate 4-kinase type-2 alpha (Homo sapiens) (UniProt P48426)
# Assay: qHTS for Inhibitors of phosphatidylinositol 5-phosphate 4-kinase (PI5P4K); also: value at the top dose of about 77 µM
# Conditions: PI5P4Kalpha enzyme, ADP-Glo luminescence, 60 min; active compounds read low
# From the text: In addition to finding PI5P, we discovered the type II phosphatidylinositol 5-phosphate 4-kinase (PI5P4K) family (alpha, beta, gamma isoforms) that catalyze the conversion of PI5P to PI(4,5)P2. Alternatively, PI(4,5)P2 can also be synthesized through phosphatidylinositol-4-phosphate (PI4P) by the type I phosphatidylinositol 4-phosphate 5-kinases (PI4P5K). These PI5P4K enzymes therefore represent one way by which cells can regulate endogenous PI5P levels and play important roles in insulin signaling and in stress responses.
# This proposal aims to identify and optimize specific modulators of human PI5P4K, phosphatidylinositol-5-phosphate 4-kinase (Type II PIPK), a family of kinases that regulate AKT signaling and tumor cell growth. In this project we aim to identify inhibitors of human PI5P4K using a quantitative high-throughput screening approach against the MLSMR containing ~400,000 small molecules.
# NIH Chemical Genomics Center [NCGC] […]
# 2 microL of PI5P4Kalpha/substrate buffer (columns 1-2, 5-48) are dispensed into Greiner white solid bottom 1536-well assay plates; column 3 receives only PI5P4Kalpha buffer as 0x substrate controls; column 4 receives only substrate buffer as 0x PI5P4Kalpha controls. […] They are then transferred to a ViewLux high-throughput CCD imager (PerkinElmer) wherein single end-point measurements of luminescence are acquired using a clear filter.
# % is scaled to controls: 0 for no effect and ±100 for the full control effect.
row,SMILES,max response
1,CCC(=O)N(c1ccccc1)C1(COC)CCN(CCn2nnn(CC)c2=O)CC1,inactive: 5.82%
2,CCC(=O)N(c1ccccc1)C1(COC)CCN(CCc2cccs2)CC1,inactive: -3.05%
